The values that follow are results of earlier work, collected in patent publication US6627664B2, “Perylenequinones for use as sonosensitizers” (Altachem Pharma Ltd., priority 2001, dated 2003).

The test system of this series is cell lines. The settings on record: tone-burst and pulsed ultrasound; cited from earlier work.

For `COc1cccc2c1C(=O)c1c(O)c3c(c(O)c1C2=O)C[C@@](O)(C(=O)CO)C[C@@H]3O[C@H]1C[C@H](N)[C@H](O)[C@H](C)O1` [doxorubicin], the “effect in combination with ultrasound on cytotoxicity” value is “synergistic effects”.
